Source: patent US7109376B2, “Benzene and naphthylene derivatives and their use as UV screening agents” (DSM IP Assets B.V., priority 2001, dated 2006)

Legend:
[1] = irradiated in high dilution with a Hg-lamp 150 W (Heraeus)

| Substance | photostability [1] | mixability with conventional cosmetic solvents |
| --- | --- | --- |
| 1,4-bis-[2-(4-(or 5-)tert.-pentyl-7-(1-pentyl-allyl)(and/or -7-oct-3-en-2-yl)-benzoxazol)-yl]-benzene [Example 10] | photostable | easily mixable |
| 1,4-bis-[2-(5-tert.-butyl-7-(1-pentyl-allyl)- and/or -7-(oct-3-en-2-yl)benzoxazol)-yl]-benzene [Example 7] | photostable | easily mixable |
